Series [1] deals with Cytochrome P450 1A2 (Homo sapiens, UniProt P05177).
For series [2], the target named is Cytochrome P450 2C9 (Homo sapiens, UniProt P11712).
For series [3], the target named is T1, Tyrosine-protein phosphatase non-receptor type 7 (Homo sapiens, UniProt P35236).
T1 sequence (P35236 whole entry): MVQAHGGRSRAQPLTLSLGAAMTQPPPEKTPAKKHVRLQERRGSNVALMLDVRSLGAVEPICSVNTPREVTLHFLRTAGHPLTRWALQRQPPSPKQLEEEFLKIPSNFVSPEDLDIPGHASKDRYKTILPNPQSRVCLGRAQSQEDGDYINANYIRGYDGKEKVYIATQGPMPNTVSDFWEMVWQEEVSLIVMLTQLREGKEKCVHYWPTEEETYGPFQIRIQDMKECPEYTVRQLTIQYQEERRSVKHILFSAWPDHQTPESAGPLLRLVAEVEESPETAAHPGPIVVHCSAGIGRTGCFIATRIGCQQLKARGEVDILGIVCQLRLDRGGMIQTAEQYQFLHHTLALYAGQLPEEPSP
Type of series: functional.

Sequences of proteins named here, by UniProt entry; tags and fusion partners are left off.
UniProt P05177, whole entry: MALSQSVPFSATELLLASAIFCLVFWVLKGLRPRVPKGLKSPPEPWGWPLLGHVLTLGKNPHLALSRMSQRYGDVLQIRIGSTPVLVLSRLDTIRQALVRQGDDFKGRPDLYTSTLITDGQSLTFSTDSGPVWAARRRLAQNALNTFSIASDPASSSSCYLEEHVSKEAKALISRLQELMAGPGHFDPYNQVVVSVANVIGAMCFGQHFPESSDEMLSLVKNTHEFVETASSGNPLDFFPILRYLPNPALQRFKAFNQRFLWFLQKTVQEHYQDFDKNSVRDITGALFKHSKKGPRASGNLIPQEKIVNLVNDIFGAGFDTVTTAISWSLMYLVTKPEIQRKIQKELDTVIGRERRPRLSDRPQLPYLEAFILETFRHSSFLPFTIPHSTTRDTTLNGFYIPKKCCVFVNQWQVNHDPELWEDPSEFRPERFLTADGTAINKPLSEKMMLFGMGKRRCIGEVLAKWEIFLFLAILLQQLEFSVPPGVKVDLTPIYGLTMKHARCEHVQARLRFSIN
UniProt P11712, whole entry: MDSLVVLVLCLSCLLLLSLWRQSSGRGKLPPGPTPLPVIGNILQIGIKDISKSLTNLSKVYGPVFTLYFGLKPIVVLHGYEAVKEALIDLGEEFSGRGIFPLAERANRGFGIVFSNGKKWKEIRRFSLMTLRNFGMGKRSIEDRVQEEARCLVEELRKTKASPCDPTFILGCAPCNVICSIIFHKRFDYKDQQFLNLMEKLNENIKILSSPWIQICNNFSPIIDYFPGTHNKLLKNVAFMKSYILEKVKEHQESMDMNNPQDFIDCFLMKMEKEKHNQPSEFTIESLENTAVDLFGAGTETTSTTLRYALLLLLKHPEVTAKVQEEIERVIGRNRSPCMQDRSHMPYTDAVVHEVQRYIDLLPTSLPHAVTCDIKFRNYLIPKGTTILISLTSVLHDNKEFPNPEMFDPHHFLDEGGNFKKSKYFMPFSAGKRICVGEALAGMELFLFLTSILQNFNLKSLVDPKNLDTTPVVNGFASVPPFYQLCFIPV
UniProt P35372, whole entry: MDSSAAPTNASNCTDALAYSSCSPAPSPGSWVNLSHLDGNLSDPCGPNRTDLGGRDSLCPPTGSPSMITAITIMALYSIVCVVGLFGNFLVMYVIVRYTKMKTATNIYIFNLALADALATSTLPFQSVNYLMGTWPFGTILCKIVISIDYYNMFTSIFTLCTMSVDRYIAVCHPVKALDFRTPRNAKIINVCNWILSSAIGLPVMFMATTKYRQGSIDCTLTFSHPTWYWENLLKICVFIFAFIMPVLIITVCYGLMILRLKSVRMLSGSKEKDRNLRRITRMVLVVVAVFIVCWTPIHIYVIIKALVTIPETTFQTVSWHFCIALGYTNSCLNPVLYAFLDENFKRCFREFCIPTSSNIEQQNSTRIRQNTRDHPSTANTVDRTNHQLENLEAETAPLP
UniProt P35363, whole entry: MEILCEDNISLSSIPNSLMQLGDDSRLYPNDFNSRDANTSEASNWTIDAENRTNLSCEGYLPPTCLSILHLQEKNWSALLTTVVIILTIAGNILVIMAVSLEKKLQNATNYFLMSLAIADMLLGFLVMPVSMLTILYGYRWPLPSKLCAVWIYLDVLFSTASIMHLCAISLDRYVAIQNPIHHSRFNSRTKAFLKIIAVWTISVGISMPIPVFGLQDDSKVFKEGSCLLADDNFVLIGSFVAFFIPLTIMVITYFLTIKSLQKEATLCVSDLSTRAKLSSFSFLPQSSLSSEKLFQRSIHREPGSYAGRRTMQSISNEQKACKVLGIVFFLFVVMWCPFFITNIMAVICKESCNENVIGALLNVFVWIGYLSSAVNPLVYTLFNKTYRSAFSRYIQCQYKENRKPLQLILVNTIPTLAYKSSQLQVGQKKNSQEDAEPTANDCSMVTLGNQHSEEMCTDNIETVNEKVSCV

Series [4] has as its target T2, Replicative DNA helicase DnaB (Mycobacterium tuberculosis, UniProt P9WMR3).
T2 sequence (P9WMR3 whole entry): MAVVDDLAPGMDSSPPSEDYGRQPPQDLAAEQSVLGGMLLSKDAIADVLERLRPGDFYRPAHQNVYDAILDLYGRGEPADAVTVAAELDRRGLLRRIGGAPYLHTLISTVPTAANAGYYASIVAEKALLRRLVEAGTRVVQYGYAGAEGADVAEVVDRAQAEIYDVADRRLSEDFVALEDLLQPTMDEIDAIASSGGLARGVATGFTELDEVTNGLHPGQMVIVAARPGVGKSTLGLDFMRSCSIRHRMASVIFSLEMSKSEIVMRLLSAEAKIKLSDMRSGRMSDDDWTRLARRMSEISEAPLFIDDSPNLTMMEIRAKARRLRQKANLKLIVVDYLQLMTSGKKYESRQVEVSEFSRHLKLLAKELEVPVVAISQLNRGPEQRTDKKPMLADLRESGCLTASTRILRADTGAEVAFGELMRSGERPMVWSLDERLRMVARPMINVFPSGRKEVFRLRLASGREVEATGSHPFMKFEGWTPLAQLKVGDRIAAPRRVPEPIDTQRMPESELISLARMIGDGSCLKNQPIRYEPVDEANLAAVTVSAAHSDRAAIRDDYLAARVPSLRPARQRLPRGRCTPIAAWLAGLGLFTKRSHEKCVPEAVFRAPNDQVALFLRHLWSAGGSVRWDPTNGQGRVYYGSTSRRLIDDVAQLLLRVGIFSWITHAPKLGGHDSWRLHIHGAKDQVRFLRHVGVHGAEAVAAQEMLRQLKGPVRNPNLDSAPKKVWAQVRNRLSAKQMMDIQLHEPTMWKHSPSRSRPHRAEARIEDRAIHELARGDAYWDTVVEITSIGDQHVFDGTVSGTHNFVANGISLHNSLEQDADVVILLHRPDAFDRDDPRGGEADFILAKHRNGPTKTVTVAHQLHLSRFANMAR
Briefly: DnaB intein splicing inhibitors, dose response, biochemical, cell-free fluorescence (AID 449749). Type of series: functional.

Series [5] has as its target Mu-type opioid receptor (Homo sapiens, UniProt P35372). The class given is functional, cell-based.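 Also: U2OS cells with beta-arrestin recruitment to OPRM1 by beta-gal complementation.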
Series [6] has as its target 5-hydroxytryptamine receptor 2A (Mus musculus, UniProt P35363). Type of series: functional, cell-based.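 Also: CHO-K1 cells with tagged receptor and beta-arrestin; agonist potency measured as compound-induced activation of the receptor.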

What is called AC50 is the concentration giving half of the maximal activity seen. As a reminder, the IC50 is the midpoint of a concentration-inhibition curve. The term EC50 denotes the concentration that produces a half-maximal response.

Active and inactive are the calls of the source.

Regarding `C[C@H]1C[C@@H]2[C@@H]([C@@H](O)C[C@@]3(C)[C@H]2CC[C@]3(O)C(=O)CO)[C@@]2(C)C=CC(=O)C=C12`, the AC50 entry in series [1] and in series [2] was “inactive” throughout.

Regarding `O=S(=O)(O)c1ccc2cc(/N=N/c3cc(S(=O)(=O)O)c4cccnc4c3O)ccc2c1`, in series [3], the 50% inhibitory concentration (IC50) was active: 0.483 µM.

In the case of `Clc1ccc(COC(Cn2ccnc2)c2ccc(Cl)cc2Cl)cc1` (stereo unspecified) [ECONAZOLE NITRATE], the AC50 in series [4] was active: 4.8 µM. On to `Nc1nc2ccc(OC(F)(F)F)cc2s1` [RILUZOLE], for which the EC50 in series [5] was inactive: 92.6 µM; in series [6] it was active: 2.92 µM.
